Entries after “also recorded” stand apart in the source; their conditions may differ.
Test system: melanoma cells
Test: TNF dose-titration on sgCtrl or sgTRAF2 melanoma cells
Type: cell-based, human
Description: 1.2×10^5 tumor cells were seeded per well in 12-well culture plates (Greiner). CD8 T cells were admixed in serial dilutions (two-fold, starting at a 1:1 ratio). After 24 hours, T cells were washed away. After a further 4 days, plates were fixed and stained for 1 hour using a crystal violet solution containing 0.1% crystal violet (Sigma) and 50% methanol (Honeywell). For quantification, remaining crystal violet was solubilized in 10% acetic acid (Sigma). Absorbance of this solution was measured on an Infinite 200 Pro spectrophotometer (Tecan) at 595 nm. In select experiments, tumor viability data was assessed with CellTiter-Blue (Promega) following manufacturer's instructions. In indicated experiments, 1 uM of birinapant (Selleck Chemicals) in DMSO (Sigma) was added during co-cultures. For Incucyte (Incucyte Zoom, Essen Bioscience) experiments, 5×10^3 tumor cells were seeded per well in 96-well culture plates (Greiner). CD8 T cells were admixed in indicated ratios and a Caspase-3/7 dye (Essen Bioscience) was added. Growth of these co-cultures was followed for 48 hours. In indicated experiments a neutralizing TNF antibody or isotype control (R&D Systems, AF375 and Cell Signaling Technology, 7321 and 3900 respectively) was added at a concentration of 1 μg per ml. […]

Substance: TNF: recombinant TNF (Peprotech)
- tumor cell death upon TNF treatment (TRAF2-inactivated (sgTRAF2) cells (FIG. 2C)): tumor cells died at picogram TNF concentrations
- tumor cell death upon TNF treatment (control (wildtype, sgCtrl) cells (FIG. 2C)): even high concentrations of TNF were unable to cause control tumor cells to die; also recorded: hardly displayed any sensitivity to TNF

Reference: US11629179B2, “TWEAK-receptor agonists for use in combination with immunotherapy of a cancer” (Stichting Het Nederlands Kanker Instituut - Antoni van …, priority 2018, dated 2023)
